Key:
[1] = Ultrafiltration with site II marker naproxen; type: binding; conditions: naproxen 1.0 μM, HSA 1.0 or 1.6 μM, PBS, 30 kDa filter
Method: (§1) In ultrafiltration experiments, we applied our previously reported models. , Briefly, Amicon Ultra centrifugal filters (30 kDa; Merck, Darmstadt, Germany) were washed once with water and once with PBS (each 500 μL). Then, samples (500 μL) were filtered for 10 min (centrifugation: 7500g, 25 °C, fixed angle rotor). Since HSA and albumin-bound molecules cannot pass through the filter with a 30 kDa cutoff value, HSA retains the bound ligand molecules, resulting in the decreased concentrations of site markers in the filtrate. , In the first experiment, the site I marker warfarin (1.0 μM) was filtered without and with HSA (3.5 or 6.0 μM). In the second experiment, the site II marker naproxen (1.0 μM) was filtered in the absence and presence of albumin (1.0 or 1.6 μM). After ultrafiltration, the concentrations of warfarin and naproxen were quantified in the filtrates with the previously described HPLC-FLD and HPLC-UV methods, respectively. ,

[2] = Fluorescence quenching of HSA by site I marker iodipamide; type: binding; conditions: for Stern–Volmer quenching constant K SV, iodipamide–HSA complex / K SV of iodipamide–HSA complex / Quenching effect of iodipamide on the emission signal of albumin: HSA 2 μM; for Stern–Volmer quenching constant K SV, iodipamide–HSA complex / K SV of iodipamide–HSA complex: iodipamide 0–6 μM, λem 340 nm; for Stern–Volmer quenching constant K SV, iodipamide–HSA complex: PBS pH 7.4, λex 295 nm, mean ± SD; for Quenching effect of iodipamide on the emission signal of albumin: ligand 0–6 μM, relative to other albumins
Method: (§2) Fluorescence measurements were performed with a Hitachi F-4500 fluorescence spectrophotometer (Tokyo, Japan) at room temperature. Emission spectra of HSA solutions were recorded using 295 nm excitation wavelength. In quenching studies, increasing levels (final concentrations: 0, 1, 2, 3, 4, 5, and 6 μM) of site I (furosemide and iodipamide), site II (diazepam and ketoprofen), or heme site (biliverdin and methyl orange) markers were added to albumin (2 μM), and then their quenching effects were evaluated at 340 nm. After background correction, the inner-filter effects of ligands were also corrected based on the following equation: Icor=Iobs×10^(Aex+Aem)/2 where I cor and I obs are the corrected and observed fluorescence emission signals at 340 nm, respectively. Furthermore, A ex and A em are the absorbance values of the site markers applied at 295 and 340 nm, respectively. Stern–Volmer quenching constants (K SV) were determined with linear fitting, employing the following equation: I0/I=1+KSV×[Q] where I 0 marks the fluorescence emission signal of HSA without the ligand, I denotes the emission intensity of HSA in the presence of the ligand, and [Q] is the molar concentration of the quencher.

[3] = Fluorescence quenching of HSA by site II marker ketoprofen; type: binding; conditions: HSA 2 μM, ketoprofen 0–6 μM, PBS pH 7.4, λex 295 nm, λem 340 nm, mean ± SD
Method: as §2

[4] = Fluorescence quenching of HSA by heme site marker methyl orange; type: binding; conditions: HSA 2 μM; for Stern–Volmer quenching constant K SV, methyl orange–HSA complex: methyl orange 0–6 μM, PBS pH 7.4, λex 295 nm, λem 340 nm, mean ± SD
Method: as §2

[5] = Fluorescence quenching of HSA by site II marker diazepam; type: binding; conditions: HSA 2 μM, diazepam 0–6 μM, PBS pH 7.4, λex 295 nm, λem 340 nm, mean ± SD
Method: as §2

[6] = Total antioxidant capacity, luminol-based enhanced chemiluminescence microplate assay; type: biochemical; conditions: HSA solution 40 mg/mL in PBS, Trolox equivalent, compared between preparations
Method: The total antioxidant capacity (TAC) was assessed using a luminol-based enhanced chemiluminescence (ECL) microplate assay, as it has been earlier described. Briefly, a 20 μL of blank, standard, or sample (40 mg/mL HSA, dissolved in PBS) was pipetted into the wells of white 96-well microplates (6005290; Per-Form Hungaria Ltd., Budapest, Hungary). Subsequently, 270 μL of the POD-ECL solution was added and the plate was shaken for 10 s. ECL reaction was initiated by the automated injection of 20 μL of H2O2 solution (1.5 mM). The luminescence of the reaction was monitored for 10 min (with 64 s measurement intervals), applying a Biotek Synergy HT plate reader (Agilent, Santa Clara, California, USA). TAC values were calculated based on the total light output (area under the curve, AUC) of the standards (Trolox, 0–100 μM). TAC of the samples was determined as Trolox equivalent (TE) in μM using a calibration curve.

[7] = Fluorescence quenching of HSA by site I marker furosemide; type: binding; conditions: HSA 2 μM, furosemide 0–6 μM, PBS pH 7.4, λex 295 nm, λem 340 nm, mean ± SD
Method: as §2

[8] = Ultrafiltration with site I marker warfarin; type: binding; conditions: warfarin 1.0 μM, HSA 3.5 or 6.0 μM, PBS pH 7.4, 30 kDa filter
Method: as §1

[9] = Fluorescence quenching of HSA by heme site marker biliverdin; type: binding; conditions: HSA 2 μM; for Stern–Volmer quenching constant K SV, biliverdin–HSA complex: PBS pH 7.4, λex 295 nm, mean ± SD
Method: as §2

[10] = ligand 0–6 μM, relative to other albumins

With “HSA8: Human serum albumin preparation, Merck (Sigma-Aldrich) A8763, lot SLCD9951, essential globulin free” the “Filtered concentration of naproxen in the presence of HSA” value [1] was “comparable changes”, the “Stern–Volmer quenching constant K SV, iodipamide–HSA complex” value [2] was 11.23 ± 0.32 × 10^–5 L/mol and the “K SV of iodipamide–HSA complex” value [2] was 1.1e+06 L/mol. For the same substance, the “Quenching effect of iodipamide on the emission signal of albumin” value [2] was “strongest quenching”, the “K SV of iodipamide–HSA8 higher compared to iodipamide–HSA3” value ([2]; ratio of K SV values) was “approximately 20 fold” and the “K SV of iodipamide–HSA8 higher compared to iodipamide–HSA10” value ([2]; ratio of K SV values) was roughly 15 fold. The “Stern–Volmer quenching constant K SV, ketoprofen–HSA complex” value [3] was 0.39 ± 0.03 × 10^–5 L/mol, the “Stern–Volmer quenching constant K SV, methyl orange–HSA complex” value [4] was 0.70 ± 0.00 × 10^–5 L/mol and the “Stern–Volmer quenching constant K SV, diazepam–HSA complex” value [5] was 0.23 ± 0.02 × 10^–5 L/mol. The “Total antioxidant capacity” value [6] was “slightly lower antioxidant capacity”, the “Stern–Volmer quenching constant K SV, furosemide–HSA complex” value [7] was 1.18 ± 0.06 × 10^–5 L/mol and the “Filtered fraction of warfarin in the presence of HSA” value [8] was “very similar decreases”. The “Stern–Volmer quenching constant K SV, biliverdin–HSA complex” value ([9]; biliverdin 0–6 μM, λem 340 nm) was 3.80 ± 0.32 × 10^–5 L/mol and the “K SV of biliverdin–HSA complex” value ([9]; biliverdin 0–6 μM, λem 340 nm) was 260000 to 380000 L/mol.

In the case of “HSA10: Human serum albumin preparation, Merck (Sigma-Aldrich) A9731, lot SLBL9344V, recombinant (expressed in rice)”, the “Filtered concentration of naproxen in the presence of HSA” value [1] is reported as “higher concentrations”, the “Stern–Volmer quenching constant K SV, iodipamide–HSA complex” value [2] is reported as 0.79 ± 0.01 × 10^–5 L/mol and the “K SV of iodipamide–HSA complex” value [2] is reported as 79000 L/mol. For the same substance, the “Quenching effect of iodipamide on the emission signal of albumin” value [2] was “considerably weaker decreases”, the “Stern–Volmer quenching constant K SV, ketoprofen–HSA complex” value [3] was 0.39 ± 0.00 × 10^–5 L/mol and the “Quenching effect of methyl orange on the emission signal of albumin” value [4, 10] was “largest changes”. The “Stern–Volmer quenching constant K SV, methyl orange–HSA complex” value [4] was 1.20 ± 0.00 × 10^–5 L/mol, the “Stern–Volmer quenching constant K SV, diazepam–HSA complex” value [5] was 0.18 ± 0.01 × 10^–5 L/mol and the “Total antioxidant capacity” value [6] was “the highest”. For the same substance, the “Stern–Volmer quenching constant K SV, furosemide–HSA complex” value [7] was 1.11 ± 0.08 × 10^–5 L/mol, the “Filtered fraction of warfarin in the presence of HSA” value [8] was “considerably higher” and the “Stern–Volmer quenching constant K SV, biliverdin–HSA complex” value ([9]; biliverdin 0–6 μM, λem 340 nm) was 5.10 ± 0.13 × 10^–5 L/mol. The “Quenching effect of biliverdin on the emission signal of albumin” value [9, 10] was “somewhat stronger impacts”.

— PMC12509120, “Complex Investigation of the Similarities and Differences between Ten Commercially Available Human Serum Albumin Preparations” (ACS Omega, 2025)
